12-LOX inh: blocks human arachidonate 12S-lipoxygenase; P18054; purified 12hLO, xylenol orange hydroperoxide absorbance; Potency, µM (highest dose often 108 µM), usual class: inhibitors; 1.1% of 580,000 active; AID 1671190
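Purified human 12hLO (150 nM final) in 25 mM Hepes, 0.01% Triton X-100, pH 7.0 was preincubated 15 min at room temperature with compound. Then 40 uM arachidonic acid was added, 30 min. Hydroperoxide was read by Fe-XO absorbance ratio 573/405 nm.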
PINK1 modulator: modulators of PINK1 expression; PINK1 immunofluorescence, high-content cytometry, 24 h; Potency, µM (top dose mostly 76.6 µM), actives largely listed as activators; 0.2% of 410,000 active; active = well fitted activation curve with a large enough effect; inconclusive = small, poorly fitted or top-dose-only effect; cell line not stated here; note: nearly all actives have a fitted effect of over 65% in size
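Fluorescence from anti-PINK1 antibody, together with nuclear and cell stains, was scanned on a laser-scanning cytometer. Before staining, stable-line cells were incubated 24 hours with compounds at 5 concentrations; primary antibody 12 h at 10 degrees C.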
Giardia kill: kills Giardia lamblia | Giardia lamblia trophozoite viability | activity change, % at 7.66 µM, hits read low | 0.15% of 340,000 active; in the data active = activity change below about -80%; inconclusive = between about -30% and that limit;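 note: parasites exposed to compound for two days anaerobically before the ATP read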
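Killing of trophozoites was scored by loss of ATP luminescence after a 48 hrs anaerobic exposure to compounds at 37 deg C, using 100 cells per well.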
miR-21 reporter: miR-21 reporter, rising signal. 340,000 tested, under 10 active. Potency, µM (highest dose often 38.3 µM). HeLa miR-21 FLuc reporter, luciferase, 48 h. AID 2288; active = well fitted rising curve with a large enough effect; inconclusive = small, poorly fitted or top-dose-only effect; inactive = no such curve, though single readings can be large or run the other way;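 further: miR-21 action dims this reporter so a rising signal means less miR-21 action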
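Compounds were titrated across several concentrations (up to approximately 40 uM) and incubated 48 hours with HeLa miR-21-FLuc reporter cells (miR-21 target sequence downstream of FLuc, endogenous miR-21). Readout was firefly luciferase luminescence after lytic detection reagent.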
ERG-DNA inh: blocks human ERG Ets domain binding to DNA | P11308 | 0.028% of 370,000 active | Potency, µM (titrated, usually from 76.9 µM), most hits filed as inhibitors | fluorescence polarization, His-ERG Ets domain / labelled DNA | AID 624246; active = well fitted inhibition curve with a large enough effect in the polarisation, with a control signal flat; inconclusive = small, poorly fitted or top-dose-only effect, or effect the other way, or a change in a side signal; inactive = no such curve, though single readings can be large or run the other way; the % refers to the polarisation;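 note: polarization taken with two DNA probes labelled with fluorescein and Texas red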
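His-tagged ERG Ets domain (1 uM in the protein solution; 300mM KCl, 50mM Tris-HCl, 1mM EDTA, 1mM DTT, pH 7.5) received compound, then a probe mix of 5 nM fluorescein-DNA and 100nM Texas-615-DNA. Fluorescence polarization was read for both dyes.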
PTHR1 ag: PTHR1 (human) receptor agonism | Q03431 | HEK293 GP2 PTHR1 cells, GloSensor cAMP luminescence, 1 h | Potency, µM (series often up to 115 µM), hits mostly activators | 0.075% of 410,000 active | AID 743266; note: nearly all actives have a fitted effect of over 55% in size
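HEK-293-derived GP2 cells expressing PTHR1 and a GloSensor cAMP reporter, 3,000/well, plated overnight, given luciferin plus IBMX (each 0.5 mM as added) for 1 h at 37 °C, then compound for 1 h at 37 °C. Luminescence was read after 15 min at room temperature.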
Large screens that a line does not name were inactive. Sampled rows, rich in hits. Any-hit rate of the full collection: about 1.3%. Unless noted, calls come from the whole dose curve; as a rule, active = well fitted curve in the direction sought with a large enough effect; inconclusive = small, poorly fitted or top-dose-only effect, or another doubt; inactive = no such curve, though single readings can be large; an effect the other way counts as inactive or inconclusive.

Cc1oc2c(O)c(O)ccc2c(=O)c1-c1ccc(Cl)cc1	12-LOX inh 5.6µM
C=CC[n+]1c(-c2ccc(C)cc2)csc1Nc1c(C)n(C)n(-c2ccccc2)c1=O	12-LOX inh 28µM
Cc1cccn2cc(CCNC(=O)c3ccco3)nc12	none
Brc1ccc(-c2ccc(-c3nnc(-c4ccco4)o3)o2)cc1	12-LOX inh 14µM (no result: PINK1 modulator, Giardia kill, miR-21 reporter, ERG-DNA inh, PTHR1 ag)
CN(C)C(=O)C1CN(C(=O)Nc2cccc(F)c2)CC12CCOCC2 (stereo not given)	none (no result: PINK1 modulator, Giardia kill, miR-21 reporter, ERG-DNA inh, PTHR1 ag)
Cc1cccc(C)c1-n1nnnc1SCC(=O)N(Cc1ccco1)C1=CCCCC1	none (no result: PINK1 modulator, Giardia kill, miR-21 reporter, ERG-DNA inh, PTHR1 ag)
Cc1ccccc1-n1nnnc1SCC(=O)N(Cc1ccco1)C1=CCCCC1	12-LOX inh 8.9µM (no result: PINK1 modulator, Giardia kill, miR-21 reporter, ERG-DNA inh, PTHR1 ag)
COc1ccc2[nH]cc(CCNc3ccnc(-c4cccc(NS(C)(=O)=O)c4)n3)c2c1	12-LOX inh 40µM (no result: Giardia kill, miR-21 reporter, ERG-DNA inh, PTHR1 ag)
COc1ccc2[nH]cc(CCNc3cc(-c4ccccc4C(F)(F)F)ncn3)c2c1	12-LOX inh inconclusive (no result: Giardia kill, miR-21 reporter, ERG-DNA inh, PTHR1 ag)
COc1ccc2[nH]cc(CCNc3cc(-c4ccccc4Cl)ncn3)c2c1	12-LOX inh 16µM (no result: Giardia kill, miR-21 reporter, ERG-DNA inh, PTHR1 ag)
O=C(O)/C=C/c1ccc(Cl)cc1	none (no result: PINK1 modulator, Giardia kill, miR-21 reporter, ERG-DNA inh, PTHR1 ag)
O=C(O)/C=C/c1cc(Br)c(-c2ccc(Cl)cc2Cl)o1	12-LOX inh 40µM (no result: PINK1 modulator, Giardia kill, miR-21 reporter, ERG-DNA inh, PTHR1 ag)
O=C(O)/C=C/c1ccc(-c2ccc(Br)cc2Cl)o1	12-LOX inh 7.9µM (no result: PINK1 modulator, Giardia kill, miR-21 reporter, ERG-DNA inh, PTHR1 ag)
COC(=O)CN1C(=O)CSc2ccc(S(=O)(=O)Nc3ccccc3)cc21	none (no result: Giardia kill)
C=CCn1c(SCC(=O)N2CCN(c3ccccc3)CC2)nnc1-c1ccco1	none
CCn1c(SCC(=O)N2CCN(c3ccccc3)CC2)nnc1-c1cc2cc(Cl)ccc2o1	PINK1 modulator 11µM
CCOc1ccc(Br)cc1C1C(C(=O)OC)=C(C)NC2=C1C(=O)c1ccccc12 (stereo not given)	none (no result: Giardia kill)
CCCOc1ccc(/C=C2/C(=O)ON=C2C)cc1Cl	12-LOX inh 5.6µM
C#CCOc1c(Cl)cc(/C=C2/C(=O)ON=C2C)cc1OC	12-LOX inh 28µM
COc1ccc(Cl)cc1/C=C1/C(=O)ON=C1C	12-LOX inh 32µM
O=C(c1cc2cc3ccc(Cl)cc3nc2o1)N1CCCCCC1	none (no result: 12-LOX inh)
Cc1nc(SCC(=O)c2cc3ccccc3oc2=O)c(C#N)c(-c2cccs2)c1C(=O)Nc1ccccc1	PINK1 modulator 40µM
COc1ccc(Br)c(C(=O)OCC(=O)Nc2cc(C)on2)c1	none (no result: Giardia kill, miR-21 reporter, ERG-DNA inh)
COc1ccc(/C=C2\SC(=S)N(NS(=O)(=O)c3ccc(C)cc3)C2=O)c(OC)c1	12-LOX inh inconclusive
COc1ccccc1/C=C1\SC(=S)N(NS(=O)(=O)c2ccc(C)cc2)C1=O	12-LOX inh 35µM
CC(C)(C)C(=O)NC(=S)Nc1cc(C(F)(F)F)ccc1N1CCOCC1	12-LOX inh 35µM
S=c1[nH]nc(-c2ccco2)n1Cc1ccccc1	12-LOX inh inconclusive
S=c1[nH]nc(-c2ccc(Br)o2)n1Cc1ccccc1	12-LOX inh 1.6µM
c1ccc(OCCCCN2CCC(c3nc4ccccc4s3)CC2)cc1	12-LOX inh 0.89µM (no result: PINK1 modulator, Giardia kill, miR-21 reporter, ERG-DNA inh, PTHR1 ag)
CCCOc1ccc(C(=O)N2CCC(c3nc4ccccc4s3)CC2)cc1	none (no result: Giardia kill)
O=C(Cn1nnc(-c2ccccc2)n1)N1CCCC(c2nc3ccccc3s2)C1 (stereo not given)	none (no result: PINK1 modulator, Giardia kill, miR-21 reporter, ERG-DNA inh, PTHR1 ag)
c1ccc(OCCCN2CCC(c3nc4ccccc4s3)CC2)cc1	12-LOX inh 0.71µM (no result: PINK1 modulator, Giardia kill, miR-21 reporter, ERG-DNA inh, PTHR1 ag)
O=C(Cn1nnc(-c2ccccc2)n1)N1CCC(c2nc3ccccc3s2)CC1	12-LOX inh 40µM (no result: PINK1 modulator, Giardia kill, miR-21 reporter, ERG-DNA inh, PTHR1 ag)
CC1=NOC(=O)/C1=C\c1ccc(-c2ccc(Br)cc2C(=O)O)o1	12-LOX inh inconclusive
CC1=NOC(=O)/C1=C\c1ccc(-c2ccc(Br)cc2)o1	12-LOX inh 45µM, miR-21 reporter inconclusive
CC1=NOC(=O)/C1=C\c1ccc(-c2cc(Cl)ccc2Cl)o1	12-LOX inh 2.2µM
N#Cc1cccc(NC(=O)N[C@H]2[C@H](O)[C@@H](N3CCC(Cc4ccccc4)CC3)[C@@H]3OC[C@H]2O3)c1	12-LOX inh 45µM (no result: PINK1 modulator, Giardia kill, miR-21 reporter, ERG-DNA inh, PTHR1 ag)
N#Cc1cccc(NC(=O)N[C@H]2[C@H](O)[C@@H](Oc3ccccc3)[C@@H]3OC[C@H]2O3)c1	none (no result: PINK1 modulator, Giardia kill, miR-21 reporter, ERG-DNA inh, PTHR1 ag)

Bioassay records deposited in PubChem BioAssay by National Center for Advancing Translational Sciences (NCATS).
